Like-named read-outs stand apart in the source and are kept apart here.
Target: phosphorylation of Y397-FAK in MDA-231-LNA cells (Homo sapiens (Human), UniProt Q05397)

By UniProt entry, the sequences of proteins in these tests, tags left out.
UniProt Q05397, whole entry: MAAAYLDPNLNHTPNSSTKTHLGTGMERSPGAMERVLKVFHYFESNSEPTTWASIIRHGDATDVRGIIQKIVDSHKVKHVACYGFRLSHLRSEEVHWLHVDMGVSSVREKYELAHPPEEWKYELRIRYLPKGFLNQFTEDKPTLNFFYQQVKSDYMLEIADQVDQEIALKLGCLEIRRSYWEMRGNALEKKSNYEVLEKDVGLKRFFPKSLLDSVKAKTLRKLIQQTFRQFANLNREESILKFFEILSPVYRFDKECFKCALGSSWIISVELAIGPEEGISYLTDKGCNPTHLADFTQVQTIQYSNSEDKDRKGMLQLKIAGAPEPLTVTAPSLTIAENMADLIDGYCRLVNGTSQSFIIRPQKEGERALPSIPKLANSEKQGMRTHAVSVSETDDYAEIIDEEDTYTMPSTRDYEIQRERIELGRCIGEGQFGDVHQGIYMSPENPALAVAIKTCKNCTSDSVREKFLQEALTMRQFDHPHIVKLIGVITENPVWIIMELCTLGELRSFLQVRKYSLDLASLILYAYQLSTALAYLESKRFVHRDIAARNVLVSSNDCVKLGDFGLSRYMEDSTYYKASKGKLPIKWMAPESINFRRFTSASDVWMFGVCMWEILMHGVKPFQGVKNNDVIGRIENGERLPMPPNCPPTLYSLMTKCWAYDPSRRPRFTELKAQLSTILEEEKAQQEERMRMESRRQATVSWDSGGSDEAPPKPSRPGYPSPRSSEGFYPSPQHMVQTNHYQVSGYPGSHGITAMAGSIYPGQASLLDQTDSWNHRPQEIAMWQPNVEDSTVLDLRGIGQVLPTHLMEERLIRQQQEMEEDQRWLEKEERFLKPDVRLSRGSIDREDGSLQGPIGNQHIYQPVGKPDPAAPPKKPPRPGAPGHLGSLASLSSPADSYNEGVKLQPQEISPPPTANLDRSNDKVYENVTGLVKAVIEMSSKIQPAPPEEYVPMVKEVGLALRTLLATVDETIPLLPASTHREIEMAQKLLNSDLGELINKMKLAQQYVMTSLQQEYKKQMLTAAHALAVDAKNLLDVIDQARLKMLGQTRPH

Row | % response of control at 2 μm [%] | % response of control at 2 μm (MDA-231-LNA cells) [%] | Structure (SMILES)
1 | – | 105 | NC(=O)Cc1ccccc1CCc1nc(Nc2ccc(C3CCCNC3)cc2)ncc1C(F)(F)F (stereo not shown) [Compound 4, 2-(2-(2-(2-((4-(Piperidin-3-yl)phenyl)amino)-5-(trifluoromethyl)pyrimidin-4-yl)ethyl)phenyl)acetamide]
2 | 105 | – | NC(=O)Cc1ccccc1CCc1nc(Nc2ccc(C3CCCCN3)cc2)ncc1C(F)(F)F (stereo not shown) [Compound 8, 2-(2-(2-(2-((4-(Piperidin-2-yl)phenyl)amino)-5-(trifluoromethyl)pyrimidin-4-yl)ethyl)phenyl)acetamide]
3 | – | 105 | CN1CCCCC1c1ccc(Nc2ncc(C(F)(F)F)c(CCc3ccccc3CC(N)=O)n2)cc1 (stereo not shown) [Compound 9, 2-(2-(2-(2-((4-(1-methylpiperidin-2-yl)phenyl)amino)-5-(trifluoromethyl)pyrimidin-4-yl)ethyl)phenyl)acetamide]
4 | – | 111 | CN1CCC(c2ccc(Nc3ncc(C(F)(F)F)c(CCc4ccccc4CC(N)=O)n3)cc2)CC1 [Compound 16, 2-(2-(2-(2-((4-(1-methylpiperidin-4-yl)phenyl)amino)-5-(trifluoromethyl)pyrimidin-4-yl)ethyl)phenyl)acetamide]
5 | – | 139 | CCN1CCC(c2ccc(Nc3ncc(C(F)(F)F)c(CCc4ccccc4CC(N)=O)n3)cc2)CC1 [Compound 31, 2-(2-(2-(2-((4-(1-Ethylpiperidin-4-yl)phenyl)amino)-5-(trifluoromethyl)pyrimidin-4-yl)ethyl)phenyl)acetamide]

The next lines start with the molecule.

Row | Structure (SMILES) | % response of control at 2 μm [%] | % response of control at 2 μm (MDA-231-LNA cells) [%]
6 | NC(=O)Cc1ccccc1CCc1nc(Nc2ccc(N3CCNCC3)cc2)ncc1C(F)(F)F [Compound 1, 2-(2-(2-(2-((4-(piperazin-1-yl)phenyl)amino)-5-(trifluoromethyl)pyrimidin-4-yl)ethyl)phenyl)acetamide] | 114 | –
7 | CN1CCN(c2ccc(Nc3ncc(C(F)(F)F)c(CCc4cccc(C(N)=O)c4)n3)cc2)CC1 [Compound 2, 3-(2-(2-((4-(4-Methylpiperazin-1-yl)phenyl)amino)-5-(trifluoromethyl)pyrimidin-4-yl)ethyl)benzamide] | – | 96
8 | CN1CCN(c2ccc(Nc3ncc(C(F)(F)F)c(CCc4ccccc4CC(N)=O)n3)cc2)CC1 [Compound 3, 2-(2-(2-(2-((4-(4-Methylpiperazin-1-yl)phenyl)amino)-5-(trifluoromethyl)pyrimidin-4-yl)ethyl)phenyl)acetamide] | – | 99
9 | CN1CCN(c2cccc(Nc3ncc(C(F)(F)F)c(CCc4cccc(C(N)=O)c4)n3)c2)CC1 [Compound 6, 3-(2-(2-((3-(4-Methylpiperazin-1-yl)phenyl)amino)-5-(trifluoromethyl)pyrimidin-4-yl)ethyl)benzamide] | – | 108
10 | CC(C(N)=O)c1ccccc1CCc1nc(Nc2ccc(C3CCNCC3)cc2)ncc1C(F)(F)F (stereo not shown) [Compound 12, 2-(2-(2-(2-((4-(piperidin-4-yl)phenyl)amino)-5-(trifluoromethyl)pyrimidin-4-yl)ethyl)phenyl)propanamide] | 106 | –
11 | NC(=O)Cc1ccccc1CCc1nc(Nc2ccc(N3CCC(N)CC3)cc2)ncc1C(F)(F)F [Compound 20, 2-(2-(2-(2-((4-(4-Aminopiperidin-1-yl)phenyl)amino)-5-(trifluoromethyl)pyrimidin-4-yl)ethyl)phenyl)acetamide] | – | 111
12 | NC(=O)Cc1ccccc1CCc1nc(Nc2ccc3c(c2)CCNC3)ncc1C(F)(F)F [Compound 21, 2-(2-(2-(2-((1,2,3,4-Tetrahydroisoquinolin-6-yl)amino)-5-(trifluoromethyl)pyrimidin-4-yl)ethyl)phenyl)acetamide] | – | 87
13 | NC(=O)Cc1ccccc1CCc1nc(Nc2ccc(C3CNCCO3)cc2)ncc1C(F)(F)F (stereo not shown) [Compound 22, 2-(2-(2-(2-((4-(Morpholin-2-yl)phenyl)amino)-5-(trifluoromethyl)pyrimidin-4-yl)ethyl)phenyl)acetamide] | – | 91

Source: US9012461B2, “FAK inhibitors” (priority 2011, dated 2015)
